Data from PubChem BioAssay AID729 (The Scripps Research Institute Molecular Screening Center, 2007).
Only a part is listed here, and it is no random draw. The source made the active and inactive calls. Rule as the data show it: active = activation above about 16%; inactive = the rest.

By UniProt entry, the sequences of proteins in these tests, tags left out.
UniProt O95136, whole entry: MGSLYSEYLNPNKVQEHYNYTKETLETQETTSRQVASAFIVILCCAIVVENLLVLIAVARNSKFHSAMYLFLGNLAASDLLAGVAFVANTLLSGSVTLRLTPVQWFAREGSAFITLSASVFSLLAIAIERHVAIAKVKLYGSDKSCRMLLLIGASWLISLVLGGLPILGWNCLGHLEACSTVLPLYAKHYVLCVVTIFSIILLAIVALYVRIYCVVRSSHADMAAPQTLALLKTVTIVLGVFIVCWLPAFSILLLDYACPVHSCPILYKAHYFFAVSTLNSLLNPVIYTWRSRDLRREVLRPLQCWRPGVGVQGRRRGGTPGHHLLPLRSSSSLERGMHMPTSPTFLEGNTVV

Molecular target: Sphingosine 1-phosphate receptor 2 (Homo sapiens) (UniProt O95136)
Assay: S1P2 receptor agonists, primary screen, cell-based (AID 729);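 also: 0% = vehicle low control and 100% = maximal reference agonist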
Conditions: S1P2-expressing cell line, agonist reporter read-out; at 4.5 µM; stronger effect = higher value

SMILES	activation
Cc1nc2ccc3ccccc3c2o1.O=[N+]([O-])c1cc([N+](=O)[O-])c(O)c([N+](=O)[O-])c1	inactive: -6.03%
COc1ccccc1OP(C)(=O)Nc1ccc(C)c(C)c1 (stereo not given)	inactive: -1.66%
Cc1c(NP(C)(=O)Oc2ccc(C(C)C)cc2)c(=O)n(-c2ccccc2)n1C (stereo not given)	inactive: -6.8%
CCc1ccc(OP(C)(=O)O)cc1	inactive: -3.03%
COc1ccccc1OP(C)(=O)Nc1ccc(C)cc1C (stereo not given)	inactive: -2.72%
CP(=O)(Nc1ccccn1)Oc1ccccc1 (stereo not given)	inactive: -5.86%
CN(C)CCOC(=O)C(O)(c1ccccc1)C1CCCC1 (stereo not given)	inactive: -4.22%
COc1ccc(OP(C)(=O)Nc2ccccn2)cc1 (stereo not given)	inactive: -2.77%
CP(=O)(Nc1ccc(Cl)cc1)Oc1ccc(F)cc1 (stereo not given)	inactive: -8.29%
CC(C)(C)c1ccc(OP(C)(=O)O)cc1	inactive: -10.1%
CCN(CC)CC(O)COC(=O)C(O)(c1ccccc1)C1CCCCC1 (stereo not given)	inactive: 1.42%
CP(=O)(Oc1ccccc1)N1CCOC1=O (stereo not given)	inactive: -2.82%
COc1ccccc1OP(C)(=O)Nc1c(C)n(C)n(-c2ccccc2)c1=O (stereo not given)	inactive: -5.29%
CP(=O)(OC12CC3CC(CC(C3)C1)C2)OC12CC3CC(CC(C3)C1)C2	inactive: -1.16%
COc1ccc(OP(C)(=O)Nc2cccc(Br)c2)cc1 (stereo not given)	inactive: -2.45%
CN(C)CCOC(=O)C(O)(c1ccccc1)C1CCCCC1 (stereo not given)	inactive: -7.55%
CP(=O)(Nc1ccc2c(c1)OCCO2)Oc1ccccc1 (stereo not given)	inactive: -10.2%
CCOP(C)(=S)SCC(=O)NC(C)(CC)C(=O)O (stereo not given)	inactive: -6.08%
CP(=O)(Nc1ccccc1F)Oc1ccccc1 (stereo not given)	inactive: -10.4%
CCN(CC)CCCOC(=O)C(O)(c1ccccc1)C1CCCCC1 (stereo not given)	inactive: -5.03%
CP(=O)(Nc1ccccc1)Oc1ccc(F)cc1 (stereo not given)	inactive: -4.03%
Cc1cc(C)cc(OP(C)(=O)Nc2ccccn2)c1 (stereo not given)	inactive: -4.85%
Cc1ccc(C)c(NP(C)(=O)Oc2ccccc2)c1 (stereo not given)	inactive: -5.32%
Cc1cc(C)cc(OP(C)(=O)Nc2ccc(C)cc2C)c1 (stereo not given)	inactive: -4.01%
Cc1nc2ccc3ccccc3c2s1.O=[N+]([O-])c1cc([N+](=O)[O-])c(O)c([N+](=O)[O-])c1	inactive: -5.53%
COc1ccccc1OP(C)(=O)Nc1c(C)cccc1C (stereo not given)	inactive: -12.4%
CP(=S)(Nn1cnnc1)Oc1ccccc1 (stereo not given)	inactive: -3.54%
CP(=O)(Nc1ccccn1)Oc1ccc(Cl)cc1 (stereo not given)	inactive: 2.37%
CP(=O)(NC(=O)Nc1ccccc1)Oc1ccccc1 (stereo not given)	inactive: -1.55%
COc1ccc(OP(C)(=O)Nc2cccc(F)c2)cc1 (stereo not given)	inactive: -6.46%
